Experimental data reported in patent publication US20240383958A1, “APELIN RECEPTOR AGONISTS AND USES THEREOF” (VISTERRA, INC., priority 2023, published 2024).

T1: apelin receptor (AGTRL1) (Homo sapiens, UniProt P35414)
T1 construct: host or cells: CHO-K1
T1 sequence (P35414 1-380): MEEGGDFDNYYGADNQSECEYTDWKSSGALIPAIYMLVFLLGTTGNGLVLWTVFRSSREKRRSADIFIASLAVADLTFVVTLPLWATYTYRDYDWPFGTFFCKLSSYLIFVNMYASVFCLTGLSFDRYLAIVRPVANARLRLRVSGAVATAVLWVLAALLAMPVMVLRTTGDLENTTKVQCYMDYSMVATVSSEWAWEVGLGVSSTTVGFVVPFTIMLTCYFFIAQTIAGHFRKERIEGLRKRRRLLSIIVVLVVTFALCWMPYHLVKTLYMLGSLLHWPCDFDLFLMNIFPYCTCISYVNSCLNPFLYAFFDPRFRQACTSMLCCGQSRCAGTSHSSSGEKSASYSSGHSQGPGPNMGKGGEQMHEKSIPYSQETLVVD

B1: APL-D: Fc-linker fusion of apelin analogue ERPRLSHKGPMPF (Q1E) (protein)
chain: MRAWIFFLLCLAGRALADKTHTSPPSPAPEAAGGPSVFLFPPKPKDTLMISRTPEVTCVVVDVSHEDPEVKFNWYVDGVEVHNAKTKPREEQYNSTYRVVSVLTVLHQDWLNGKEYKCKVSNKALPAPIEKTISKAKGQPREPQVYTLPPSREEMTKNQVNLTCLVKGFYPSDIAVEWESNGQPENNYKTTPPVLDSDGSFFLNSTLTVDKSRWQQGNVFSCSVMHEALHNHYTQKSLSLSPGKGGGGSGGGGSGGGGSERPRLSHKGPMPF
B2: APL-E: Fc-linker fusion of apelin analogue QRPRLSHKGPHPF (M11H) (protein)
chain: MRAWIFFLLCLAGRALADKTHTSPPSPAPEAAGGPSVFLFPPKPKDTLMISRTPEVTCVVVDVSHEDPEVKFNWYVDGVEVHNAKTKPREEQYNSTYRVVSVLTVLHQDWLNGKEYKCKVSNKALPAPIEKTISKAKGQPREPQVYTLPPSREEMTKNQVNLTCLVKGFYPSDIAVEWESNGQPENNYKTTPPVLDSDGSFFLNSTLTVDKSRWQQGNVFSCSVMHEALHNHYTQKSLSLSPGKGGGGSGGGGSGGGGSQRPRLSHKGPHPF
B3: APL-F: Fc-linker fusion of apelin analogue QRPRLSHKGPAPY (M11A, F13Y) (protein)
chain: MRAWIFFLLCLAGRALADKTHTSPPSPAPEAAGGPSVFLFPPKPKDTLMISRTPEVTCVVVDVSHEDPEVKFNWYVDGVEVHNAKTKPREEQYNSTYRVVSVLTVLHQDWLNGKEYKCKVSNKALPAPIEKTISKAKGQPREPQVYTLPPSREEMTKNQVNLTCLVKGFYPSDIAVEWESNGQPENNYKTTPPVLDSDGSFFLNSTLTVDKSRWQQGNVFSCSVMHEALHNHYTQKSLSLSPGKGGGGSGGGGSGGGGSQRPRLSHKGPAPY
B4: APL-I: Leader-Fc-linker fusion of apelin analogue QRPRLSHKGPAAW (M11A, P12A, F13W) (protein)
chain: MRAWIFFLLCLAGRALADKTHTSPPSPAPEAAGGPSVFLFPPKPKDTLMISRTPEVTCVVVDVSHEDPEVKFNWYVDGVEVHNAKTKPREEQYNSTYRVVSVLTVLHQDWLNGKEYKCKVSNKALPAPIEKTISKAKGQPREPQVYTLPPSREEMTKNQVNLTCLVKGFYPSDIAVEWESNGQPENNYKTTPPVLDSDGSFFLNSTLTVDKSRWQQGNVFSCSVMHEALHNHYTQKSLSLSPGKGGGGSGGGGSGGGGSQRPRLSHKGPAAW
B5: APL-K: Leader-Fc-linker fusion of apelin analogue QRPRLQHKNPMAF (S6Q, G9N, P12A) (protein)
chain: MRAWIFFLLCLAGRALADKTHTSPPSPAPEAAGGPSVFLFPPKPKDTLMISRTPEVTCVVVDVSHEDPEVKFNWYVDGVEVHNAKTKPREEQYNSTYRVVSVLTVLHQDWLNGKEYKCKVSNKALPAPIEKTISKAKGQPREPQVYTLPPSREEMTKNQVNLTCLVKGFYPSDIAVEWESNGQPENNYKTTPPVLDSDGSFFLNSTLTVDKSRWQQGNVFSCSVMHEALHNHYTQKSLSLSPGKGGGGSGGGGSGGGGSQRPRLQHKNPMAF
B6: APL-L: Leader-Fc-linker fusion of apelin analogue QRPRLQHKNPMAW (S6Q, G9N, P12A, F13W) (protein)
chain: MRAWIFFLLCLAGRALADKTHTSPPSPAPEAAGGPSVFLFPPKPKDTLMISRTPEVTCVVVDVSHEDPEVKFNWYVDGVEVHNAKTKPREEQYNSTYRVVSVLTVLHQDWLNGKEYKCKVSNKALPAPIEKTISKAKGQPREPQVYTLPPSREEMTKNQVNLTCLVKGFYPSDIAVEWESNGQPENNYKTTPPVLDSDGSFFLNSTLTVDKSRWQQGNVFSCSVMHEALHNHYTQKSLSLSPGKGGGGSGGGGSGGGGSQRPRLQHKNPMAW

Target: T1, apelin receptor (AGTRL1)
Experiment: PathHunter beta-arrestin signaling assay
Type: cell-based
Settings: PathHunter CHO-K1 AGTRL1 β-arrestin cells
Procedure: In this example, commercially available HitHunter® cAMP assay was used to determine the effect of apelin receptor agonists on Gai signaling, measured cAMP depletion. Next, commercially available PathHunter® beta-arrestin assay was used to determine the effect of apelin receptor agonists on beta-arrestin signaling. Additionally, the effect of apelin receptor agonists on ERK signaling was determined.
In a 384-well plate (Corning #3897), PathHunter® CHO-K1 AGTRL1 β-arrestin cells (Eurofins DiscoverX #93-0250C2) were seeded at 5×10^3 cells/well in 20 μL AssayComplete Cell Plating 2 Reagent (Eurofins DiscoverX #93-0563R2A) and were incubated overnight at 37° C. with 5% CO2. On the following day, the plate was treated with 5 μL/well of compounds serially diluted in 1×PBS+0.1% BSA buffer and was incubated for 1.5 hr at 37° C. with 5% CO2. Then, 12.5 μL/well of detection solution was added, prepared as instructed in the PathHunter® Detection Kit (Eurofins DiscoverX #93-0001), the plate was wrapped in foil, and was incubated at room temperature. Plates were read after 1-2 hr of incubation on a standard luminescence plate reader. In this assay, low levels of β-arrestin in cells were directly related to low luminescence signal. Using Four Parameter Logistic Regression for curve fitting, the raw data file was processed into S-shaped dose-response curves from which values, such as the EC50, Hill Slope, and Emax, were quantified.

Molecule	beta-Arrestin EC50 (nM) Exp. 2	beta-Arrestin EC50 (nM) Exp. 1
B1	Weak	–
B2	Weak	Weak
B3	Weak	–
B4	Weak	Weak
B5	Weak	Weak
B6	Weak	Weak
